Reference: PMC6928210, “Structural basis of methotrexate and pemetrexed action on serine hydroxymethyltransferases revealed using plant models” (Scientific Reports, 2019)

Columns and labels:
TS = target: TS; parameters: method as in PMID 10856298; details: read-out: Ki against TS; cited from earlier work
AtSHMT4 = target: T1, AtSHMT4 (Arabidopsis thaliana, UniProt O23254); experiment: SHMT forward reaction (serine + THF), coupled assay, initial velocity; format: biochemical; details: AtSHMT4, pH 9.5, 30 mM L-serine fixed, 30 °C
T1 construct: The open reading frames coding for AtSHMT2 41–517 fragment and full-length AtSHMT4 were amplified; His6 (N, cleaved yes); made in house; host or cells: E. coli BL21 Gold
T1 sequence (O23254 1-471): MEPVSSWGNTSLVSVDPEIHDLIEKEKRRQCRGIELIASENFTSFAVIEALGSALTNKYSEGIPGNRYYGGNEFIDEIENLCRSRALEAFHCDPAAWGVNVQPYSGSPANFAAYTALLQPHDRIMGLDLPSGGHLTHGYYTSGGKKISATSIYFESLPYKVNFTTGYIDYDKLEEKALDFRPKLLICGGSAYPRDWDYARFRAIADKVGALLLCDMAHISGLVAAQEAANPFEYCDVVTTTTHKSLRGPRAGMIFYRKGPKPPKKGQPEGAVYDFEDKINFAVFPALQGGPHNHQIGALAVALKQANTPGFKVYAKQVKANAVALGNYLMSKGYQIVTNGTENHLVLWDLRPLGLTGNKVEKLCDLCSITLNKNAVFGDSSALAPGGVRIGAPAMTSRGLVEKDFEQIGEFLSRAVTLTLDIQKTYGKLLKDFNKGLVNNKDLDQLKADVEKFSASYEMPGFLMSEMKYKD

AtSHMT2 = target: T2, AtSHMT2 (Arabidopsis thaliana, UniProt Q94C74); experiment: as above; format: biochemical; details: 30 °C
T2 construct: the protein N-truncated at E41; The open reading frames coding for AtSHMT2 41–517 fragment; His6 (N, cleaved yes); made in house; host or cells: E. coli BL21 Gold
T2 sequence (Q94C74 41-517): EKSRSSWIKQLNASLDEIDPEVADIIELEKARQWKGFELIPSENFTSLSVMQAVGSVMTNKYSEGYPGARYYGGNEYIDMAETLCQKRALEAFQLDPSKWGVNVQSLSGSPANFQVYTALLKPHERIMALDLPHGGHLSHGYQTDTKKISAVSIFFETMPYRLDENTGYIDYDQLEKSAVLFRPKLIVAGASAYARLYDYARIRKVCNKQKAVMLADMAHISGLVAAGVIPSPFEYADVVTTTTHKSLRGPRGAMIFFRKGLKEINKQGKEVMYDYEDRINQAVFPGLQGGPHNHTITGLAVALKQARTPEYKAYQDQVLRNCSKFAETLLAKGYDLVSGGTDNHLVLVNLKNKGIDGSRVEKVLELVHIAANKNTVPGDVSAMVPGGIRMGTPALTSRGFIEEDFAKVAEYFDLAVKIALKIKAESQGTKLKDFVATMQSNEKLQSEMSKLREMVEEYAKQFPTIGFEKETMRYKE

Nc1nc2[nH]cc(CCc3ccc(C(=O)N[C@@H](CCC(=O)O)C(=O)O)cc3)c2c(=O)[nH]1 [PTX, pemetrexed]
Ki (TS): 0.109 µM

tetrahydrofolate [THF]
Km (AtSHMT4): 49.2 ± 6.62 µM | Km (AtSHMT2; AtSHMT2, pH 7, 30 mM L-serine fixed): 154 ± 10.9 µM | Km (AtSHMT2; AtSHMT2, pH 8, 30 mM L-serine fixed): 144 ± 12.6 µM | Km (AtSHMT2; AtSHMT2, pH 8.5, 30 mM L-serine fixed): 196 ± 14.6 µM | Km (AtSHMT2; AtSHMT2, pH 9.5, 30 mM L-serine fixed): 192 ± 10.4 µM
